Laboratory results taken from PMC7545266.

Test system: OC[C@H]1O[C@@](CO)(O[C@H]2O[C@H](CO)[C@@H](O)[C@H](O)[C@H]2O)[C@@H](O)[C@@H]1O
Assay: purified protein
Settings: pH and temperature not given; printed sucrose range 0.2-2.6 mM (inulin 2.9-52.1 mM), perhaps swapped

KcINU1 (exo-inulinase from Kluyveromyces cicerisporus CBS4857) (Kluyveromyces marxianus; M117A)
Km: 20.0 ± 3.5 mM | Vmax: 4972 d336.4

KcINU1 (exo-inulinase from Kluyveromyces cicerisporus CBS4857) (Kluyveromyces marxianus; F113W)
Km: 94.0 ± 19.2 mM | Vmax: 5770 µmol/min/mg
